In PubChem BioAssay AID2107 (National Center for Advancing Translational Sciences (NCATS), 2009):
Values joined by “and” are separate entries in the source; they are usually repeats but may differ in a detail not shown here. Identical values can stand only once. This is a selection; strong and weak results do not stand in their true shares. Active and inactive are the calls of the source. Calls come from the whole dose curve; as a rule, active = well fitted inhibition curve with a large enough effect; inconclusive = small, poorly fitted or top-dose-only effect, or effect the other way; inactive = flat fitted curve, though single readings scatter.

Protein sequences, listed by entry. Tags and fused reporters are not part of them. Lines headed by an entry give the natural chain unless they say otherwise; changes in a name come on top.
UniProt P06280: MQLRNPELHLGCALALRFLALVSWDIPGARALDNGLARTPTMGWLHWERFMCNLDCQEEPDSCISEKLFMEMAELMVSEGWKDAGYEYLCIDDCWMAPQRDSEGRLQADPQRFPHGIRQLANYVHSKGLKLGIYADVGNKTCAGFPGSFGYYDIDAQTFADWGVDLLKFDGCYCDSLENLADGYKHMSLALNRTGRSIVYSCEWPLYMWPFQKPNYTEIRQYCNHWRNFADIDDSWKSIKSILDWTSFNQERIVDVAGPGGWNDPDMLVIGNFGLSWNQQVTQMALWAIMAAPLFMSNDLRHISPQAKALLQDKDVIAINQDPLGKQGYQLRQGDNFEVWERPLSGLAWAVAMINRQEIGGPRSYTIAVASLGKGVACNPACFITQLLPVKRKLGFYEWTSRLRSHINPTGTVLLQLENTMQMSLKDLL

Target: Alpha-galactosidase A (Homo sapiens) (UniProt P06280)
Assay: qHTS Assay for Inhibitors and Activators of Human alpha-Galactosidase From Spleen Homogenate;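 note: 0% = enzyme with vehicle and -100% = no enzyme basal signal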
Conditions: 4MU-alpha-Gal fluorescence, 40 min; at 80 µM (top of the series) unless noted
Description: NIH Chemical Genomics Center [NCGC] NIH Molecular Libraries Probe Production Centers Network [MLPCN] MLPCN Grant: R03 MH084842-01 Assay Submitter (PI): Wei Zheng NCGC Assay Overview: Alpha-galactosidase is a homodimeric glycoprotein that hydrolyzes the terminal alpha-galactosyl moieties from glycolipids and glycoproteins. Deficiency of this enzyme results in Fabry Disease with progressive accumulation of globotriaosylceramide and other glycosphingolipids in vascular endothelial cells that causes renal failure, myocardial infarction and stroke, and premature death in patients. It has been reported that the improper folding and trafficking of alpha-galactosidase resulting from genetic mutations may account for a significant number of Fabry patients. […] We optimized this alpha-galactosidase assay in 1536-well plate format for identification of novel small molecule inhibitors or activators with structures other than the sugar analogs in order to develop new pharmacological chaperones. In particular, this assay is directed towards discovering compounds active in more natural setting, tissue homogenate, that may have been missed by screens of the purified enzyme under more stringent conditions.
NCGC Assay Protocol Summary: This is a fluorogenic enzyme assay with 4-methylumbelliferyl-alpha-D-galactopyranoside as the substrate and human spleen homogenate containing alpha-galactosidase as the enzyme preparation. Upon hydrolysis of this fluorogenic substrate, the resulting product, 4-methylumbelliferone (which excites at 365 nm and emits at 440 nm) can be detected by a fluorescence plate reader. Data were normalized to the controls for basal activity (without enzyme) and 100% activity (with enzyme). The AC50 values were determined from concentration-response data modeled with the standard Hill equation. Assay buffer: 50 mM citric acid (titrated with potassium phosphate to pH 5.0), 0.01% Tween-20 (pH 5.0 is an optimal condition for this enzyme assay) 1536-well assay protocol for the alpha-galactosidase from human spleen homogenate: (1) Add 2 ul/well spleen homogenate (1 ug) (2) Add 23 nL compounds in DMSO solution. The final titration was 0.5 nM to 58 uM. (3) Add 2 ul of substrate (1 mM final) (4) Incubate at 37C for 40 min (5) Add 2 ul stop solution (1M NaOH and 1M Glycine mixture, pH 10) (6) Detect the assay plate in a ViewLux plate reader (PerkinElmer) with Ex=365 nm and Em=440nm. Keywords: Alpha-galactosidase, Fabry Disease, pharmacological chaperone, chaperone therapy, high throughput screening, alpha- galactosidase inhibitor, MLSMR, MLSCN, NIH Roadmap, qHTS and NCGC

SMILES | activity change, negative = inhibition
CCOP(=O)(Nc1ccc(C)cn1)OCC | inactive: 2.85%
CC(C)/C=N\N=C(\N)N[N+](=O)[O-] | inactive: -10.2%
CN(C(=O)Cc1ccc(Cl)c(Cl)c1)[C@@H]1CCCC[C@H]1N1CCCC1 | inactive: 14.2% and inactive: 3.12% and inactive: 1.89%
O=[As](O)(c1ccccc1Br)c1ccccc1Br | inactive: 0.303%
CN(C)C1(CNC(=O)c2ccc(S(C)(=O)=O)cc2)CCCCC1 | inactive: -2.53%
O=C(/C=C/c1ccccc1)OC1CN2CCC1CC2 (centres undefined) | inactive: -7.12%
CC1CCC(C(C)C)C(OP(=O)(Nc2ccccn2)c2ccccc2)C1 (centres undefined) | inactive: -9.63%
Cc1nn(-c2ccccc2)c2c1P(=O)(N1CCOCC1)N(C)C(c1ccccc1)=N2 (centres undefined) | inactive: 0.997%
Nc1cccc([As](=O)(O)c2ccccc2)c1 | inactive: 3.47%
O=P1(Nc2ccc(Br)cn2)COc2ccccc2OC1 | inactive: 6.57%
O=[As](O)(c1cccs1)c1cccs1 | inactive: 18%
Cc1ccc(OCC(=O)OC2CN3CCC2CC3)cc1 (centres undefined) | inactive: -1.75%
O=P1(Nc2ncccn2)COc2ccccc2OC1 | inactive: 7.17%
Cc1cc(SC(NC(=O)c2ccccc2)C(Cl)(Cl)Cl)nc(C(C)C)n1 (centres undefined) | inactive: -6.61%
CCOC(=O)Nc1ccc([As](=O)(O)O)c(O)c1 | inactive: -15%
CN(N=O)C(=N)N[N+](=O)[O-] | inactive: 5.03%
O=P(Nc1ccccn1)(c1cccc2ccccc12)c1cccc2ccccc12 | inactive: 4.98%
Cc1cc(SC(NC=O)C(Cl)(Cl)Cl)ncn1 (centres undefined) | inactive: -1.53%
O=[N+]([O-])c1ccc(Nc2ccc(Oc3ccc([N+](=O)[O-])cc3[N+](=O)[O-])cc2)c([N+](=O)[O-])c1 | inactive: 4.98%
CCOC(=O)Nc1cccc([As](=O)(O)O)c1 | inactive: 5.09%

SMILES | activity change, negative = inhibition
O=C(COc1ccccc1)OC1CN2CCC1CC2 (centres undefined) | inactive: 16.3%
COP1(=S)c2c(C)nn(CCC#N)c2N=C(c2ccc(F)cc2)N1C (centres undefined) | inactive: -0.264%
CCC(C)N(CC(C)C)C(=S)SC(NC(C)=O)C(Cl)(Cl)Cl (centres undefined) | inactive: 1.21%
CCOC(=O)c1ccc(NC(=O)C(C)(CCl)SC)cc1 (centres undefined) | inactive: 6.86%
COc1cc(I)ccc1[As](=O)(O)O | inactive: 7.88%
COc1ccc2nc(NP(=O)(c3ccccc3)c3ccccc3)sc2c1 | inactive: -3.53%
Cc1c2c(nc3ccccc13)SC(C(Cl)Cl)C2 (centres undefined) | inactive: 13.6%
Cc1cc(=O)[nH]c(N[N+](=O)[O-])n1 | inactive: 3.87%
O=C(OC1CN2CCC1CC2)C12CC3CC(CC(C3)C1)C2 (centres undefined) | inactive: 3%
COc1ccc(N/C(=N/P(=O)(N2CCOCC2)N2CCOCC2)N2CCOCC2)cc1 | inactive: 7.39%
Cc1ccc(OP(=O)(Nc2ccc([N+](=O)[O-])cn2)Oc2ccc(C)cc2)cc1 | inactive: -10.3%
Cc1ccc2nc3c(c(C)c2c1)CC(C(Cl)Cl)S3 (centres undefined) | inactive: 1.56%
O=[As](O)(c1ccc(O)cc1)c1ccccc1O | inactive: 4.99%
C[As](=O)(O)c1cccc(C(=O)O)c1 | inactive: 4.59%
O=[N+]([O-])c1cc([N+](=O)[O-])c(-c2ccn[nH]2)s1 | inactive: -3.03%
CCN(CC)C(=S)SC(NC=O)C(Cl)(Cl)Cl (centres undefined) | inactive: 14.1%
CC(C)NC(=O)NP(=O)(Oc1ccccc1)Oc1ccccc1 | inactive: -8.02%
ClCCSc1nnc(-c2cccnc2)o1 | inactive: 8.59%
CC(C)c1ccc(OP(=O)(Nc2ccccn2)Oc2ccccc2F)cc1 (centres undefined) | inactive: -5.61%
